Experimental data reported in patent US7314861B2, “Melanin-concentrating hormone analogs” (priority 2001, dated 2008).

Protein sequences, listed by entry. Tags and fused reporters are not part of them. Lines headed by an entry give the natural chain unless they say otherwise; changes in a name come on top.
UniProt Q969V1: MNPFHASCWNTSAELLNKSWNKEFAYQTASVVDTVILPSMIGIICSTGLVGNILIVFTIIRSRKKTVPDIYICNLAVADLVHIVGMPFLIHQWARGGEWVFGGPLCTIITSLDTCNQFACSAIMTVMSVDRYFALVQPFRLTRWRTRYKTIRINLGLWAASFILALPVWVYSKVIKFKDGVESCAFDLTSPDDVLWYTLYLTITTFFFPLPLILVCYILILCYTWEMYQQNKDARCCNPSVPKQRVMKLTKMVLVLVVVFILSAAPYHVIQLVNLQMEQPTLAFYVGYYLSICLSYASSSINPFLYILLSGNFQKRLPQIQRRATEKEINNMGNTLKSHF
UniProt Q99705: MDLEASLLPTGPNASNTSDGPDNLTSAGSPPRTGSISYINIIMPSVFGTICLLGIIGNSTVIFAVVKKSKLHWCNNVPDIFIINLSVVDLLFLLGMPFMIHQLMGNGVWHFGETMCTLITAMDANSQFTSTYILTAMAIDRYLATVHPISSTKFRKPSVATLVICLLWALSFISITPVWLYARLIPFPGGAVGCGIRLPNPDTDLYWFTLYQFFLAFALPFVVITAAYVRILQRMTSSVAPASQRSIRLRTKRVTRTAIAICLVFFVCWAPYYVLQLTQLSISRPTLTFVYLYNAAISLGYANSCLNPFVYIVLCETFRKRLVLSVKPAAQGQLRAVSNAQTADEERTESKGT

Key:
[1] = molecular target: human MCH-R2 (Homo sapiens, UniProt Q969V1); test: Aequorin bioluminescence functional assay, MCH-2R; conditions: for EC50: MCH-2R EC50 (nM), 293-AEQ17 cells; for EC50 / MCH-2R Activation %: Table 1, aequorin functional assay; for MCH-2R Activation %: % Activation at 10 μM
[2] = molecular target: T1, human MCH-1R (Homo sapiens, UniProt Q99705); test: Aequorin bioluminescence functional assay, MCH-1R; conditions: for MCH-1R Activation %: Table 1, % Activation at 10 μM, aequorin functional assay
[3] = molecular target: T1, human MCH-1R; test: Radiolabeled MCH-R binding assay (SPA based), MCH-1R

selective activity at MCH-2R over MCH-1R ([1]; greater binding and/or activation at MCH-2R than at MCH-1R) | EC50 [2] | SMILES | EC50 [1] | MCH-2R Activation % [1] | MCH-1R Activation % [2] | IC50 [3]
 |  | CCCC[C@@H]1NC(=O)[C@@H](NC(=O)[C@H](CCCNC(=N)N)NC(C)=O)CSSC[C@@H](C(N)=O)NC(=O)[C@@H]2CCCN2C(=O)[C@H](CCCNC(=N)N)NC(=O)[C@H](Cc2ccc(O)cc2)NC(=O)[C@H](C(C)C)NC(=O)[C@H](CCCNC(=N)N)NC(=O)CNC(=O)[C@H](CC(C)C)NC1=O [compound 5] | 12 nM | 105% | 105% | 0.5 nM
 |  | CSCC[C@@H]1NC(=O)[C@@H](NC(=O)[C@H](CCCNC(=N)N)NC(C)=O)CSSC[C@@H](C(N)=O)NC(=O)CN(C)C(=O)[C@H](CCCNC(=N)N)NC(=O)[C@H](Cc2ccc(O)cc2)NC(=O)[C@H](C(C)C)NC(=O)[C@H](CCCNC(=N)N)NC(=O)CNC(=O)[C@H](CC(C)C)NC1=O [compound 32] | 12 nM | 91% | 113% | 
selectively active | > 10000 nM | CC(=O)N[C@@H](CCCNC(=N)N)C(=O)N[C@H]1CSSC[C@@H](C(N)=O)NC(=O)[C@@H]2CCCN2C(=O)[C@H](CCCNC(=N)N)NC(=O)[C@H](Cc2ccc(O)cc2)NC(=O)[C@H](C(C)C)NC(=O)[C@H](CCCNC(=N)N)NC(=O)[C@@H](C)NC(=O)[C@H](CC(C)C)NC(=O)[C@H](C)NC1=O [compound 35] | 140 nM | 120% |  | 
